Assay results published in PubChem BioAssay (NCI).
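Briefly, cells in 96-well plates were exposed to five compound concentrations for 48 h, and endpoints were estimated by linear interpolation. GI50 is the concentration that inhibits growth by half. TGI: total growth inhibition.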

Tested on: MDA-MB-468 breast
Experiment: NCI anticancer screen, dose series, 48 h

`COc1cccc([As]=O)c1` (configuration not stated) gave a GI50 of 0.142 µM and a TGI of 0.309 µM.
